Chains of the proteins cited; added tags and fusions are not shown.
UniProt Q07889, whole entry, looked up, stated change not applied: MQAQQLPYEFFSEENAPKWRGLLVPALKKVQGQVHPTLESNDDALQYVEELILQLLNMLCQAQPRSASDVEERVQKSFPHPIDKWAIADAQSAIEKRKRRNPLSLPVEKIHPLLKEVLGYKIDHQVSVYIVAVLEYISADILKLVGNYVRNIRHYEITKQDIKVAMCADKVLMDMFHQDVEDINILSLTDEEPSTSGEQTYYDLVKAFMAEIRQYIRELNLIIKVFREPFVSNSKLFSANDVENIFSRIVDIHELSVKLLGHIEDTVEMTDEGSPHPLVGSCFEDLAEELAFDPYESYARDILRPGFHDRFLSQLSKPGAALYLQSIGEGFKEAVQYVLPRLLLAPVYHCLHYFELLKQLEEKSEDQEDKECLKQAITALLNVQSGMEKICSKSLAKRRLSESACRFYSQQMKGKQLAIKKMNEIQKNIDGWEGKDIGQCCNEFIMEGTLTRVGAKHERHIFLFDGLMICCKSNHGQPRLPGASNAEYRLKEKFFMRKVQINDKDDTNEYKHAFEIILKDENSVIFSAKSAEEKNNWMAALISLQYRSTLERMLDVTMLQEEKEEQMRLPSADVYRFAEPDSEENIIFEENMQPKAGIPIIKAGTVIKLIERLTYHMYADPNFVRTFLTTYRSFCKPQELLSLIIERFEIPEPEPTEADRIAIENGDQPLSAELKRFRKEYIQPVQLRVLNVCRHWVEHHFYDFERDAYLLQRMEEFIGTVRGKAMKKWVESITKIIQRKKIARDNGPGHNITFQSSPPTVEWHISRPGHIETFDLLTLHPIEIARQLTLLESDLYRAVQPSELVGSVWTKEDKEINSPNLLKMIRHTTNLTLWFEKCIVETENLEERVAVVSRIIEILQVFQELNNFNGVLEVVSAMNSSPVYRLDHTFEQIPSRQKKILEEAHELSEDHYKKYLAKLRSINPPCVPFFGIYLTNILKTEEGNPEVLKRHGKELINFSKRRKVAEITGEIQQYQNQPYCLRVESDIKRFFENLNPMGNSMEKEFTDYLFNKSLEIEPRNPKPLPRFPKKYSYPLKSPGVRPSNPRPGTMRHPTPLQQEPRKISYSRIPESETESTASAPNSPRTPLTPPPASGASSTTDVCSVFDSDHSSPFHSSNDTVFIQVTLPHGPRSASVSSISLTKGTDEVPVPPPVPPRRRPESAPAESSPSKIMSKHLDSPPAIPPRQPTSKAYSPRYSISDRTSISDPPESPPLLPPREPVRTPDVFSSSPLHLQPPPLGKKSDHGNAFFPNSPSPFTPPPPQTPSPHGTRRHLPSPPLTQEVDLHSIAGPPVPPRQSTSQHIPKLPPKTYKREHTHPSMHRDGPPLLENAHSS

In ChEMBL document CHEMBL5512628, “Current advances and development strategies of targeting son of sevenless 1 (SOS1) in drug discovery” (Eur J Med Chem, 2024):

Target: Son of sevenless homolog 1 (Homo sapiens, UniProt Q07889, G12C)
Test: Binding affinity to SOS1 in human NCI-H358 cells expressing KRAS G12C mutant assessed as dissociation constant
Format: cell-based

SMILES: Cc1cc(Cn2c(N3CCNCC3)nc3c(-c4c(C)n[nH]c4C)cc(Cl)cc32)cc(C)c1F
- Kd: < 10 nM
